The values below are quoted from earlier work in US10016389B2, “Method of making liposomes, liposome compositions made by the methods, and methods of using the same” (LivOn Laboratories, priority 2011, dated 2018).

The conditions of this series: doses up to 10,000 mg daily for up to three years.

For `O=C1O[C@H]([C@@H](O)CO)C(O)=C1O` [vitamin C, L-ascorbic acid], the “safety of daily consumption” value is “safe”.
